Laboratory results as given in PubChem BioAssay AID720553 (National Center for Advancing Translational Sciences (NCATS), 2013).
Only a part is listed here, and it is no random draw. Active and inactive are the calls of the source.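 Rule for the calls: active = maximum activity change below -70%; inconclusive = maximum activity change from -70% to -50%; inactive = maximum activity change above -50%.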
% is set by controls: 0 for no effect and ±100 for the full control effect.

What follows are molecules tested on Potassium voltage-gated channel subfamily H member 2, brain isoform KCNH2 3.1 (human) (assay: qHTS for Inhibitors of KCHN2 3.1: Mutant qHTS). Conditions: U2OS KCNH2 3.1, thallium flux FluxOr; stronger effect = lower value.
Source text: Many antipsychotic drugs that inhibit the neurotransmitter dopamine also bind to hERG1 channel which might help explain their antipsychotic activity but also produces cardiac side effects. The discovery of the novel KCNH2 3.1 isoform offers a potential new target for the development of antipsychotic drugs without cardiac side effects. This proposal will use a high throughput thallium flux assay developed for KCNH2 to screen compounds that modulate the activity of KCNH2 3.1. The wild type KCNH2 channel will also be screened in parallel to help define the selective modulators of this KCNH2 3.1 potassium channel. The resulting compounds will be validated in electrophysiology experiments. The availability of animal models will allow future testing in vivo for effects on memory and other aspects of animal physiology linked with psychosis. NIH Chemical Genomics Center [NCGC] NIH Molecular Libraries Probe Centers Network [MLPCN] MLPCN Grant: MH096539 Assay Submitter (PI): James Barrow, Johns Hopkins University, Lieber Institute for Brain Development
U2OS cells were resuspended in cell media containing 10% fetal calf serum (FCS) at a concentration of 2 million cells / mL. The solution was treated with the mutant (3.1) virus at 1.77 x 10^8 / mL and allowed to incubate at room temperature in the dark. After 4 hours of incubation, DMEM + 10% fetal bovine serum (FBS) was added to the cell solution. Three microliter was then dispensed into a 1536 tissue culture treated black assay plates which were incubated overnight at 37 C. Two microliter of loading buffer (HBSS + HEPES + Red40 dye quencher + FluxOr dye) was added and the assay plates were incubated for 45 min at room temperature in the dark. […] A stimulation buffer was added to the plate and the second kinetic read (2 min) was obtained. The rate constant was calculated from the kinetic reads and normalized to the positive and negative DMSO controls.
`Clc1n[nH]nc1-c1nn[nH][15n]1` was tested, and the activity change was inactive: -17.2%.
`O=P1(N(CCCl)CCCl)NCCC(C(F)(F)F)O1` (stereo not given) was tested, and the activity change was inactive: 1.86%.
In the case of `CC(C)(C)C(=O)NC(Sc1ncccn1)C(Cl)(Cl)Cl` (stereo not given), the activity change is reported as inactive: 19.5%.
In the case of `CCC1=CC2Cc3nc4ccc(Cl)cc4c(N)c3C(C1)C2` (stereo not given), the activity change is reported as inactive: -34%.
In the case of `O=P1(Nc2ccccn2)COc2ccccc2OC1`, the activity change is reported as inactive: 15.6%.
In the case of `CCOP(=O)(NC(=NC(C)c1ccccc1)NC(C)c1ccccc1)OCC` (stereo not given), the activity change is reported as inactive: 2.16%.
In the case of `CCOP(=O)(Nc1ccc(C)cn1)OCC`, the activity change is reported as inactive: 6.56%.
For `CN(CCCl)Cc1cc(Cl)c(NC2=NCCN2)c(Cl)c1`, the activity change was inactive: -5.62%.
With `CC(C)/C=N\N=C(\N)N[N+](=O)[O-]` the activity change was inactive: -19.3%.
In the case of `CC1(CBr)Cn2c(nc3ccccc3c2=O)S1` (stereo not given), the activity change is reported as inactive: 3.59%.
For `COc1ccccc1CNC(=O)COC(=O)C(O)(c1ccccc1)c1ccccc1`, the activity change was inactive: -1.16%.
With `CN(C)C1(CNC(=O)c2ccc(S(C)(=O)=O)cc2)CCCCC1` the activity change was inactive: 0.508%.
For `O=C(/C=C/c1ccccc1)OC1CN2CCC1CC2` (stereo not given), the activity change was inactive: 7.22%.
`CCCC1OP(=O)(Nc2ccccc2)OCC1CC` (stereo not given) was tested, and the activity change was inactive: -13.3%.
With `Cc1nn(-c2ccccc2)c2c1P(=O)(N1CCOCC1)N(C)C(c1ccccc1)=N2` (stereo not given) the activity change was inactive: 4.65%.
In the case of `Cc1ccc(C(=O)OC2CN3CCC2CC3)cc1` (stereo not given), the activity change is reported as inactive: 2.22%.
For `CC1CCC(C(C)C)C(OP(=O)(Nc2ccccn2)c2ccccc2)C1` (stereo not given), the activity change was inactive: 3.2%.
With `Nc1cccc([As](=O)(O)c2ccccc2)c1` the activity change was inactive: 4.94%.
In the case of `O=[As](O)(c1cccs1)c1cccs1`, the activity change is reported as inactive: 13.5%.
With `Cc1ccc(OCC(=O)OC2CN3CCC2CC3)cc1` (stereo not given) the activity change was inactive: -4.41%.
`NS(=O)(=O)c1cccc(NC(=O)COC(=O)C(O)(c2ccccc2)c2ccccc2)c1` was tested, and the activity change was inactive: -1.95%.
For `O=P1(Nc2ccc(Br)cn2)COc2ccccc2OC1`, the activity change was inactive: 1.36%.
`O=P1(Nc2ncccn2)COc2ccccc2OC1` was tested, and the activity change was inactive: 6.31%.
With `O=C(O)COc1ccc([As](=O)(O)O)cc1[N+](=O)[O-]` the activity change was inactive: -7.94%.
In the case of `Nc1ccccc1[As](=O)(O)c1ccccc1`, the activity change is reported as inactive: 14.3%.
`CCOP1(=S)c2c(C)nn(CCC#N)c2N=C(c2ccccc2F)N1C` (stereo not given) was tested, and the activity change was inactive: 5.9%.
In the case of `O=P(Nc1nccs1)(Oc1ccccc1)Oc1ccccc1`, the activity change is reported as inactive: 10.4%.
In the case of `O=P(Nc1nccs1)(c1ccccc1)c1nc2ccccc2s1` (stereo not given), the activity change is reported as inactive: -23.1%.
For `CS(=O)(=O)c1cc([N+](=O)[O-])c2no[n+]([O-])c2c1`, the activity change was inactive: -4.89%.
In the case of `N#CCCN(C(=O)COC(=O)C(O)(c1ccccc1)c1ccccc1)c1ccc(F)cc1`, the activity change is reported as inactive: 5.46%.
With `CN(C(=O)Cc1ccccc1)[C@@H]1CC[C@]2(CCCO2)C[C@H]1N1CCCC1` the activity change was inactive: 3.28%.
With `CCOP1(=S)c2c(C)nn(CCC#N)c2N=C(c2ccc(F)cc2)N1C` (stereo not given) the activity change was inactive: 3.92%.
For `O=[N+]([O-])c1ccc2c(c1)nnn2O`, the activity change was inactive: -3.95%.
`CN(C)C(=O)c1cc([N+](=O)[O-])cc2c1-c1c(cc([N+](=O)[O-])cc1[N+](=O)[O-])C2=O` was tested, and the activity change was inactive: 0.825%.
`CN(C(=O)Cc1ccc(Cl)c(Cl)c1)[C@H]1CC[C@@]2(CCCO2)C[C@@H]1N1CCCC1` was tested, and the activity change was inactive: -22.4%.
For `NC(=O)Nc1ccc([As](=O)(O)O)cc1`, the activity change was inactive: 1.26%.
`Cc1cccc(OCC(=O)OC2CN3CCC2CC3)c1` (stereo not given) was tested, and the activity change was inactive: 18.4%.
For `O=[As](O)(c1cccc(O)c1)c1cccc(O)c1`, the activity change was inactive: 4.73%.
With `O=C(OC1CN2CCC1CC2)c1ccc(Cl)cc1` (stereo not given) the activity change was inactive: -4.3%.
In the case of `O=[As](O)(O)c1cccnc1`, the activity change is reported as inactive: 10.6%.
`COc1cc(C(=O)NCC2(N3CCOCC3)CCCCC2)cc(Cl)c1OC(C)C` was tested, and the activity change was inactive: -29.4%.
`CS(=O)(=O)c1ccc(Cl)c(NC(=O)COC(=O)C(O)(c2ccccc2)c2ccccc2)c1` was tested, and the activity change was inactive: -2.31%.
For `COc1cc(C2NCCC3(OCCO3)C2(C)C)cc(OC)c1OC` (stereo not given), the activity change was inactive: 2.11%.
In the case of `CCOP(=O)(Nc1cccc2ccccc12)OCC`, the activity change is reported as inactive: 19.4%.
With `Nc1cccc2c([As](=O)(O)O)cccc12` the activity change was inactive: 0.449%.
In the case of `Cc1ccc(NCCc2c([N+](=O)[O-])cc([N+](=O)[O-])cc2[N+](=O)[O-])cc1`, the activity change is reported as inactive: -0.997%.
`CCCOP(=S)(Nc1nc(N)cc(=O)[nH]1)OCCC` was tested, and the activity change was inactive: 1.49%.
For `O=P1(N(CCCl)CCCl)Nc2ccccc2N1`, the activity change was inactive: 14.5%.
In the case of `COc1ccc2nc(NP(=O)(c3ccccc3)c3ccccc3)sc2c1`, the activity change is reported as inactive: -2.36%.
With `COc1cc(I)ccc1[As](=O)(O)O` the activity change was inactive: 13.1%.
For `Cc1c2c(nc3ccccc13)SC(C(Cl)Cl)C2` (stereo not given), the activity change was inactive: 31.5%.
With `O=C(OC1CN2CCC1CC2)C12CC3CC(CC(C3)C1)C2` (stereo not given) the activity change was inactive: -22.8%.
For `O=[N+]([O-])c1cc(Oc2ccc([N+](=O)[O-])cc2C(F)(F)F)cc([N+](=O)[O-])c1`, the activity change was active: -95%.
With `COc1ccc(N/C(=N/P(=O)(N2CCOCC2)N2CCOCC2)N2CCOCC2)cc1` the activity change was inactive: 1.21%.
With `Cc1ccc(OP(=O)(Nc2ccc([N+](=O)[O-])cn2)Oc2ccc(C)cc2)cc1` the activity change was inactive: -41.6%.
In the case of `Cc1ccc2nc3c(c(C)c2c1)CC(C(Cl)Cl)S3` (stereo not given), the activity change is reported as inactive: -28.1%.
For `C[As](=O)(O)c1cccc(C(=O)O)c1`, the activity change was inactive: 4.85%.
`O=[As](O)(c1ccc(O)cc1)c1ccccc1O` was tested, and the activity change was inactive: -11.6%.
With `O=[N+]([O-])c1ccc(-c2cc([N+](=O)[O-])c(O)c([N+](=O)[O-])c2)cc1` the activity change was inactive: 6.96%.
For `COc1cc(C(=O)NCC2(N3CCOCC3)CCCCC2)ccc1OCC(C)C`, the activity change was inactive: -10.3%.
In the case of `CC(C)NC(=O)NP(=O)(Oc1ccccc1)Oc1ccccc1`, the activity change is reported as inactive: 9.7%.
For `O=C(OC1CN2CCC1CC2)c1cccc2[nH]cnc12` (stereo not given), the activity change was inactive: 9.86%.
With `CCN(CC)C(=S)SC(NC=O)C(Cl)(Cl)Cl` (stereo not given) the activity change was inactive: 6.71%.
`ClCCSc1nnc(-c2cccnc2)o1` was tested, and the activity change was inactive: 16.8%.
In the case of `COP(=O)(OC)N1CC1c1ccccc1` (stereo not given), the activity change is reported as inactive: -5.05%.
